What was measured:
JAK2 = JAK2 (Homo sapiens, UniProt O60674); assay: JAK2 IC50 measurement
TYK2 = TYK2 (Homo sapiens, UniProt P29597); assay: TYK2 IC50 measurement

Sequences of proteins named here, by UniProt entry; tags and fusion partners are left off. A change or cut given only in a name is not applied to a line headed by its entry.
UniProt O60674: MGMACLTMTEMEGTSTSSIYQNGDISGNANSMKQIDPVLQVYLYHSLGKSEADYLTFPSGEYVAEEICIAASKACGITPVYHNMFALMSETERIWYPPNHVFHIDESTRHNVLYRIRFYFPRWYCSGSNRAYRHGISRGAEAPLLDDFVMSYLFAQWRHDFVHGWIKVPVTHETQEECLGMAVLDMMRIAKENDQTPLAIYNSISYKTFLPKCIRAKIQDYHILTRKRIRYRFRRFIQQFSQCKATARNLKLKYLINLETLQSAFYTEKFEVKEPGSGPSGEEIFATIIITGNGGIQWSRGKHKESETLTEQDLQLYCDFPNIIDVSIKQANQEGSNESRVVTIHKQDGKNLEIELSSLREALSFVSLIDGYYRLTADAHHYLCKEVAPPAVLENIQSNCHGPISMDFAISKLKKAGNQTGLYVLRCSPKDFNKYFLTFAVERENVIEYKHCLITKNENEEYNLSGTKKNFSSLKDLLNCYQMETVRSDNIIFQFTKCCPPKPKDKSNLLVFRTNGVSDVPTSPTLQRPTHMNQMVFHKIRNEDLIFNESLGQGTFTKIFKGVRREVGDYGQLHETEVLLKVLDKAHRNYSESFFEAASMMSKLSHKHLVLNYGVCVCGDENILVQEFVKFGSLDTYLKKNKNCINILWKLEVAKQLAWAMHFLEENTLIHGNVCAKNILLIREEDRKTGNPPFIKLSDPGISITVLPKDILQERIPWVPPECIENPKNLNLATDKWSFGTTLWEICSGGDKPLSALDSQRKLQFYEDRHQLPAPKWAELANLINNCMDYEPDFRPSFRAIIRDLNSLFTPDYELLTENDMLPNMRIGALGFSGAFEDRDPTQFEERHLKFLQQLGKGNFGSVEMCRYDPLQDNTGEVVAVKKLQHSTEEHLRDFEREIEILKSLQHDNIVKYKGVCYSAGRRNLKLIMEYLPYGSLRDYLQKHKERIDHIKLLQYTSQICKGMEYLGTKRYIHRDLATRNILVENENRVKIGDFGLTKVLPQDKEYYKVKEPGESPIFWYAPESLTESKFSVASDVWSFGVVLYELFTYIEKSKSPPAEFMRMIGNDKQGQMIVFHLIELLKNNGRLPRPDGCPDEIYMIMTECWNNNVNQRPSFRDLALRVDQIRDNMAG
UniProt P29597: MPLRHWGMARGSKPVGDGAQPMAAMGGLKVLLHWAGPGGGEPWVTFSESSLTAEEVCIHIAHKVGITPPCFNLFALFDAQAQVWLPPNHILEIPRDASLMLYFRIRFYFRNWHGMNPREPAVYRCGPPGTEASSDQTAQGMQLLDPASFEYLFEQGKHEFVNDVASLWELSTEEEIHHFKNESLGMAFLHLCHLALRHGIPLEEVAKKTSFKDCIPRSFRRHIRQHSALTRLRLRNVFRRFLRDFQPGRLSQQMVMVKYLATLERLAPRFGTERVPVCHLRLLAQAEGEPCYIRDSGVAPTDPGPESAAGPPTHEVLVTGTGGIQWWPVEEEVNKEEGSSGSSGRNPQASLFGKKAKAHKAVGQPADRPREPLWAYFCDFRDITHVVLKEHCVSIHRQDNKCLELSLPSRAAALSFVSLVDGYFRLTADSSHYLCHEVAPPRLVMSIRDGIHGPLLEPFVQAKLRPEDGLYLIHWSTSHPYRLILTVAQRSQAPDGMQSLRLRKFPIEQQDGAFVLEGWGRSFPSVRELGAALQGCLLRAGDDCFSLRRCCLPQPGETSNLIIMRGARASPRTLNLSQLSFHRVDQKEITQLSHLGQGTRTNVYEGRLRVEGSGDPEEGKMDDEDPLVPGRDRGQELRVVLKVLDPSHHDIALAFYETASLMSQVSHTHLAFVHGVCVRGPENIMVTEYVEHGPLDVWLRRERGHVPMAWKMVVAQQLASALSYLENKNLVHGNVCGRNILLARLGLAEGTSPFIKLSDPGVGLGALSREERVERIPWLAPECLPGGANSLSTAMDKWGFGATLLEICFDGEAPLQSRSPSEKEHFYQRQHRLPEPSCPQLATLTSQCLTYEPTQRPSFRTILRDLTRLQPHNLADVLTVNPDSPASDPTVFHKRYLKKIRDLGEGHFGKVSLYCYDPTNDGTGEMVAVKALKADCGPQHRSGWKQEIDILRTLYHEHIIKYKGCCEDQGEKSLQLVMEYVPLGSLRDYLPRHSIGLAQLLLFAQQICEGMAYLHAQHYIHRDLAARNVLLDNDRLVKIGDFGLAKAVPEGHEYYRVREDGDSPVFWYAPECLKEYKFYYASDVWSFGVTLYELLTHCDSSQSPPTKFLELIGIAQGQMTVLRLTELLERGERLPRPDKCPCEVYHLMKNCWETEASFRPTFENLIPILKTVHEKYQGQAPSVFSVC

| SMILES | IC50 (JAK2) [nM] | IC50 (TYK2) [nM] |
| --- | --- | --- |
| CNC(=O)c1cnc2[nH]ccc2c1N[C@@H]1CCN(Cc2cccc(Cl)c2)C1 [Compound 15f, (R)-4-((1-(3-chlorobenzyl)pyrrolidin-3-yl)amino)-N-methyl-1H-pyrrolo[2,3-b]pyridine-5-carboxamide] | 224 | 475 |
| CNC(=O)c1cnc2[nH]ccc2c1N[C@@H]1CCN(Cc2ccc(Cl)cc2)C1 [Compound 15g, (R)-4-((1-(4-Chlorobenzyl)pyrrolidin-3-yl)amino)-N-methyl-1H-pyrrolo[2,3-b]pyridine-5-carboxamide] | 444 | 485 |
